Assay results from patent publication US20020058669A1, “PROCESS FOR THE TREATMENT OF ORGANOPHOSPHATE POISONING” (published 2002).

Test system: soman-poisoning in rats
Test: Protection of CPA injected 1 min after soman-poisoning in rats
Conditions: CPA 2 mg/kg i.m. alone, no soman, n = 2

OC[C@H]1O[C@@H](n2cnc3c(NC4CCCC4)ncnc32)[C@H](O)[C@@H]1O
Symptoms: no physical signs
